The values that follow are results of earlier work, collected in patent US10668029B2, “Compositions containing non-polar compounds” (VIRUN, INC., priority 2008, dated 2020).

For the series the following is noted: hydrophilic-lipophilic balance value.
Take PEG-2 Hydrogenated Castor Oil: the HLB is on record as 1.7. As to PEG-25 Hydrogenated Castor Oil, the HLB is 10.8. For the substance PEG-35 Castor Oil, the HLB is reported as 12.5. With Pluronic F68, the HLB is given as 29.
